Assay results as given in PubChem BioAssay (NCI).
Values joined by “and” are separate entries in the source; they are usually repeats but may differ in a detail not shown here. Equal entries are not always repeated. The list shows a part of the results, in another mix than the full data.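 Results are percent growth after 48 hours of single-concentration exposure. 100 means growth as in untreated cells, lower positive values show inhibition; negative values down to -100 show cell death.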 Active and inactive are the calls of the source. How the source made its calls: active means growth percent below 10; inactive means the rest.

test system: OVCAR-3 ovarian; assay: NCI-60 one-dose screen, 48 h (100 = growth as untreated, 0 = no growth, -100 = all killed); conditions: 10 µM unless noted

Q: With `CC1CCNP(=O)(N(CCCl)CCCl)O1` (stereo unspecified) as the compound, how does the growth read?
A: The growth was inactive: 97.3%.

Q: With `CCN(CCCl)CC1OC(O)C(O)C1O` (stereo unspecified) as the compound, how does the growth read?
A: Its growth is inactive: 118%.

Q: Which growth does the source give for `CN(CCCl)/N=N/c1nc2nc[nH]c(=O)c2[nH]1` here?
A: The growth was inactive: 110%.

Q: `Nc1ccc(N(CCCl)CCCl)cc1` was tested. Which growth did it give?
A: The growth was inactive: 79.8%.

Q: `c1cc(-c2nn[nH]n2)ccc1-c1nn[nH]n1` was tested. Which growth did it give?
A: The growth was inactive: 107%.

Q: With `CCCC1OP(N)(=O)OCC1CC` (stereo unspecified) as the compound, how does the growth read?
A: The growth was inactive: 113% and inactive: 92.2%.

Q: `CCOP(=S)(OCC)OCC` was tested. Which growth did it give?
A: The growth was inactive: 112%.

Q: Which growth does the source give for `CCOP(=S)(OCC)SCCCl` here?
A: Its growth is inactive: 113%.

Q: For `CN(C)P1(Cl)=NP(Cl)(N(C)C)=NP(Cl)(N(C)C)=N1` (stereo unspecified), which growth is on record?
A: Its growth is inactive: 111%.

Q: Which growth does the source give for `Nc1ccc(CCCCOc2ccccc2)cc1` here?
A: Its growth is inactive: 76.4%.

Q: How did the growth turn out when `O=[N+]([O-])c1cccc(Oc2ccc([N+](=O)[O-])cc2[N+](=O)[O-])c1` was run?
A: The growth was inactive: 17.5%.

Q: `CCN(CC)[P+](c1ccc(OC)cc1OC)(N(CC)CC)N(CC)CC` was tested. Which growth did it give?
A: The growth was inactive: 13.1%.

Q: How did the growth turn out when `O=C(Nc1ccc([N+](=O)[O-])cc1)N(CCBr)CCBr` was run?
A: Its growth is inactive: 111%.

Q: How did the growth turn out when `O=P1(N(CCCl)CCCl)Nc2ccccc2N1` was run?
A: The growth was inactive: 122%.

Q: With `ClCCNCc1ccccc1` as the compound, how does the growth read?
A: The growth was inactive: 99.5%.

Q: With `O=C(O)/C=C\c1cccc(N(CCCl)CCCl)c1` as the compound, how does the growth read?
A: Its growth is inactive: 117%.

Q: How did the growth turn out when `O=C(O[C@H]1CN2CCC1CC2)C1NCc2ccccc2[C@@H]1c1ccccc1` (stereo partly specified) was run?
A: The growth was inactive: 102%.

Q: How did the growth turn out when `CC(=O)Nc1ccc([As](=O)(O)O)c(O)c1` was run?
A: The growth was inactive: 105%.

Q: `ClCCN1CCNCC1` was tested. Which growth did it give?
A: The growth was inactive: 108%.

Q: `Cc1cc([N+](=O)[O-])cc([N+](=O)[O-])c1O` was tested. Which growth did it give?
A: Its growth is inactive: 107%.

Q: With `O=C(OC1CN2CCC1CC2)c1ccccc1` (stereo unspecified) as the compound, how does the growth read?
A: The growth was inactive: 112%.

Q: Which growth does the source give for `O=C(c1ccc([N+](=O)[O-])cc1)N(CCCl)CCCl` here?
A: Its growth is inactive: 108%.

Q: `CCCCCCCCCCNP(=S)(Cl)Cl` was tested. Which growth did it give?
A: Its growth is inactive: 107%.

Q: For `COc1cc([N+](=O)[O-])c(Nc2ccc(Cl)cc2[N+](=O)[O-])c([N+](=O)[O-])c1`, which growth is on record?
A: The growth was inactive: 91.6%.

Q: With `O=[As]c1ccc(S(=O)(=O)Nc2ccccc2)cc1` (stereo unspecified) as the compound, how does the growth read?
A: Its growth is inactive: 19.2%.

Q: `Cc1ccc(S(=O)(=O)CN(CCCl)CCCl)cc1` was tested. Which growth did it give?
A: Its growth is inactive: 110%.

Q: How did the growth turn out when `CCCN(CCCl)C1c2ccccc2-c2ccccc21` was run?
A: The growth was inactive: 108%.

Q: For `CC(Cl)CN(CC(C)Cl)C(=O)c1ccccc1` (stereo unspecified), which growth is on record?
A: The growth was inactive: 107%.

Q: `CC(Cl)CN(CC(C)Cl)C(=O)OCC(N)C(=O)O` (stereo unspecified) was tested. Which growth did it give?
A: The growth was inactive: 114% and inactive: 126%.

Q: `C[As](=O)(O)c1cccc(C(=O)O)c1` was tested. Which growth did it give?
A: Its growth is inactive: 112%.

Q: For `Cc1ccc(S(=O)(=O)N(CCCN)CCCc2c(C)nc(N)[nH]c2=O)cc1`, which growth is on record?
A: Its growth is inactive: 113%.

Q: Which growth does the source give for `Cn1c(COc2ccc([N+](=O)[O-])cc2[N+](=O)[O-])cnc1[N+](=O)[O-]` here?
A: Its growth is inactive: 108%.

Q: With `O=[N+]([O-])c1ccc(CCCCCCc2ccc([N+](=O)[O-])cc2[N+](=O)[O-])c([N+](=O)[O-])c1` as the compound, how does the growth read?
A: The growth was inactive: 92.8%.

Q: Which growth does the source give for `CCSC(O)C(Cl)(Cl)Cl` (stereo unspecified) here?
A: The growth was inactive: 105%.

Q: How did the growth turn out when `O=[N+]([O-])c1cc(Cl)cc([N+](=O)[O-])c1O` was run?
A: Its growth is inactive: 115%.

Q: For `OP1OCCO1`, which growth is on record?
A: The growth was inactive: 114%.

Q: Which growth does the source give for `N#CC(C#N)=C(C#N)N(CCCl)CCCl` here?
A: Its growth is inactive: 100%.

Q: `CC[C@H](C)[C@@H]1NC(=O)/C(=C(\C)O)C1=O` was tested. Which growth did it give?
A: Its growth is inactive: 114%.

test system: HS 578T breast; assay: as above; conditions: 10 µM unless noted

Q: `CC1CCNP(=O)(N(CCCl)CCCl)O1` (stereo unspecified) was tested. Which growth did it give?
A: Its growth is inactive: 97%.

Q: Which growth does the source give for `CCN(CCCl)CC1OC(O)C(O)C1O` (stereo unspecified) here?
A: Its growth is inactive: 99.4%.

Q: How did the growth turn out when `CN(CCCl)/N=N/c1nc2nc[nH]c(=O)c2[nH]1` was run?
A: The growth was inactive: 98%.

Q: With `Nc1ccc(N(CCCl)CCCl)cc1` as the compound, how does the growth read?
A: Its growth is inactive: 107%.

Q: Which growth does the source give for `c1cc(-c2nn[nH]n2)ccc1-c1nn[nH]n1` here?
A: Its growth is inactive: 93%.

Q: `CCCC1OP(N)(=O)OCC1CC` (stereo unspecified) was tested. Which growth did it give?
A: The growth was inactive: 110% and inactive: 95.6%.

Q: `CCOP(=S)(OCC)OCC` was tested. Which growth did it give?
A: Its growth is inactive: 102%.

Q: Which growth does the source give for `CCOP(=S)(OCC)SCCCl` here?
A: Its growth is inactive: 113%.

Q: Which growth does the source give for `CN(C)P1(Cl)=NP(Cl)(N(C)C)=NP(Cl)(N(C)C)=N1` (stereo unspecified) here?
A: Its growth is inactive: 97.6%.

Q: How did the growth turn out when `Nc1ccc(CCCCOc2ccccc2)cc1` was run?
A: The growth was inactive: 86%.

Q: Which growth does the source give for `O=[N+]([O-])c1cccc(Oc2ccc([N+](=O)[O-])cc2[N+](=O)[O-])c1` here?
A: The growth was inactive: 20.3%.

Q: With `CCN(CC)[P+](c1ccc(OC)cc1OC)(N(CC)CC)N(CC)CC` as the compound, how does the growth read?
A: Its growth is inactive: 66%.

Q: Which growth does the source give for `O=C(Nc1ccc([N+](=O)[O-])cc1)N(CCBr)CCBr` here?
A: Its growth is inactive: 116%.

Q: How did the growth turn out when `O=P1(N(CCCl)CCCl)Nc2ccccc2N1` was run?
A: Its growth is inactive: 130%.

Q: With `ClCCNCc1ccccc1` as the compound, how does the growth read?
A: The growth was inactive: 107%.

Q: How did the growth turn out when `O=C(O)/C=C\c1cccc(N(CCCl)CCCl)c1` was run?
A: Its growth is inactive: 104%.

Q: With `O=C(O[C@H]1CN2CCC1CC2)C1NCc2ccccc2[C@@H]1c1ccccc1` (stereo partly specified) as the compound, how does the growth read?
A: Its growth is inactive: 93.3%.

Q: `CC(=O)Nc1ccc([As](=O)(O)O)c(O)c1` was tested. Which growth did it give?
A: Its growth is inactive: 97.2%.

Q: `ClCCN1CCNCC1` was tested. Which growth did it give?
A: The growth was inactive: 105%.

Q: How did the growth turn out when `Cc1cc([N+](=O)[O-])cc([N+](=O)[O-])c1O` was run?
A: The growth was inactive: 108%.

Q: With `O=C(OC1CN2CCC1CC2)c1ccccc1` (stereo unspecified) as the compound, how does the growth read?
A: Its growth is inactive: 101%.

Q: Which growth does the source give for `O=C(c1ccc([N+](=O)[O-])cc1)N(CCCl)CCCl` here?
A: The growth was inactive: 123%.

Q: For `CCCCCCCCCCNP(=S)(Cl)Cl`, which growth is on record?
A: The growth was inactive: 96.2%.

Q: `COc1cc([N+](=O)[O-])c(Nc2ccc(Cl)cc2[N+](=O)[O-])c([N+](=O)[O-])c1` was tested. Which growth did it give?
A: Its growth is inactive: 77.8%.

Q: `O=[As]c1ccc(S(=O)(=O)Nc2ccccc2)cc1` (stereo unspecified) was tested. Which growth did it give?
A: Its growth is inactive: 65%.

Q: With `Cc1ccc(S(=O)(=O)CN(CCCl)CCCl)cc1` as the compound, how does the growth read?
A: The growth was inactive: 108%.

Q: Which growth does the source give for `CCCN(CCCl)C1c2ccccc2-c2ccccc21` here?
A: The growth was inactive: 106%.

Q: `CC(Cl)CN(CC(C)Cl)C(=O)c1ccccc1` (stereo unspecified) was tested. Which growth did it give?
A: Its growth is inactive: 90.5%.

Q: `CC(Cl)CN(CC(C)Cl)C(=O)OCC(N)C(=O)O` (stereo unspecified) was tested. Which growth did it give?
A: Its growth is inactive: 119%.

Q: For `C[As](=O)(O)c1cccc(C(=O)O)c1`, which growth is on record?
A: Its growth is inactive: 116%.

Q: With `Cc1ccc(S(=O)(=O)N(CCCN)CCCc2c(C)nc(N)[nH]c2=O)cc1` as the compound, how does the growth read?
A: The growth was inactive: 97.6%.

Q: With `Cn1c(COc2ccc([N+](=O)[O-])cc2[N+](=O)[O-])cnc1[N+](=O)[O-]` as the compound, how does the growth read?
A: Its growth is inactive: 112%.

Q: With `O=[N+]([O-])c1ccc(CCCCCCc2ccc([N+](=O)[O-])cc2[N+](=O)[O-])c([N+](=O)[O-])c1` as the compound, how does the growth read?
A: Its growth is inactive: 88.6%.

Q: With `CCSC(O)C(Cl)(Cl)Cl` (stereo unspecified) as the compound, how does the growth read?
A: Its growth is inactive: 102%.

Q: With `O=[N+]([O-])c1cc(Cl)cc([N+](=O)[O-])c1O` as the compound, how does the growth read?
A: Its growth is inactive: 105%.

Q: Which growth does the source give for `OP1OCCO1` here?
A: Its growth is inactive: 110%.

Q: With `N#CC(C#N)=C(C#N)N(CCCl)CCCl` as the compound, how does the growth read?
A: The growth was inactive: 102%.

Q: Which growth does the source give for `CC[C@H](C)[C@@H]1NC(=O)/C(=C(\C)O)C1=O` here?
A: The growth was inactive: 102%.
